Amino acid sequences for entries named in this document (tags omitted). A change or cut given only in a name is not applied to a line headed by its entry.
UniProt O00329, whole entry: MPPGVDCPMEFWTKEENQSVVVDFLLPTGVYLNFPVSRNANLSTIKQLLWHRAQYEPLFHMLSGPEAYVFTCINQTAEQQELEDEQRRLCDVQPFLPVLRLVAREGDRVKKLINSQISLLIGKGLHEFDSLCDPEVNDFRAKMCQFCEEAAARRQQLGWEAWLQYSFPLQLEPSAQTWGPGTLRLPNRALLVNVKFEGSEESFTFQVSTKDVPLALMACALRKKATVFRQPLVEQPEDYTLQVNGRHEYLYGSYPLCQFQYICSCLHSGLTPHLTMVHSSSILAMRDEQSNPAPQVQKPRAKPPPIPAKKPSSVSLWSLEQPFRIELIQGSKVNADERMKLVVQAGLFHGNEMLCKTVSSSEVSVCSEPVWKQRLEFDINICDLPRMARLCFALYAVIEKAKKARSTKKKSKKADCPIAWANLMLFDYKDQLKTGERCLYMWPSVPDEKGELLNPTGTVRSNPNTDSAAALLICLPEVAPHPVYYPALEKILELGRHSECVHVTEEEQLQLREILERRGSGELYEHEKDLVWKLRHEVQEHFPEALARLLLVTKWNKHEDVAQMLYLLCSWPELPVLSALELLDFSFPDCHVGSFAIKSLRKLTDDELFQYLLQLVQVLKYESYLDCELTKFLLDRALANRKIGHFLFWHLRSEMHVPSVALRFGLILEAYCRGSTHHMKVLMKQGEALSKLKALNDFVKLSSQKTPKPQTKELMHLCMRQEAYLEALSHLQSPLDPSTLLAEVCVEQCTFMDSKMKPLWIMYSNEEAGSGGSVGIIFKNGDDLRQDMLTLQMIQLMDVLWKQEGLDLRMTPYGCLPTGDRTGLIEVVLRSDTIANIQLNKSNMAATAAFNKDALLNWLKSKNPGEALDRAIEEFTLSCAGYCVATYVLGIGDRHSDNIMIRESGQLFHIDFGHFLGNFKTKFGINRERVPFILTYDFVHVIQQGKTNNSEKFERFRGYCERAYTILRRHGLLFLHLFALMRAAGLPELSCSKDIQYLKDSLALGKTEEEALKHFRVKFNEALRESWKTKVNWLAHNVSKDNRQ
UniProt P27986, whole entry partner: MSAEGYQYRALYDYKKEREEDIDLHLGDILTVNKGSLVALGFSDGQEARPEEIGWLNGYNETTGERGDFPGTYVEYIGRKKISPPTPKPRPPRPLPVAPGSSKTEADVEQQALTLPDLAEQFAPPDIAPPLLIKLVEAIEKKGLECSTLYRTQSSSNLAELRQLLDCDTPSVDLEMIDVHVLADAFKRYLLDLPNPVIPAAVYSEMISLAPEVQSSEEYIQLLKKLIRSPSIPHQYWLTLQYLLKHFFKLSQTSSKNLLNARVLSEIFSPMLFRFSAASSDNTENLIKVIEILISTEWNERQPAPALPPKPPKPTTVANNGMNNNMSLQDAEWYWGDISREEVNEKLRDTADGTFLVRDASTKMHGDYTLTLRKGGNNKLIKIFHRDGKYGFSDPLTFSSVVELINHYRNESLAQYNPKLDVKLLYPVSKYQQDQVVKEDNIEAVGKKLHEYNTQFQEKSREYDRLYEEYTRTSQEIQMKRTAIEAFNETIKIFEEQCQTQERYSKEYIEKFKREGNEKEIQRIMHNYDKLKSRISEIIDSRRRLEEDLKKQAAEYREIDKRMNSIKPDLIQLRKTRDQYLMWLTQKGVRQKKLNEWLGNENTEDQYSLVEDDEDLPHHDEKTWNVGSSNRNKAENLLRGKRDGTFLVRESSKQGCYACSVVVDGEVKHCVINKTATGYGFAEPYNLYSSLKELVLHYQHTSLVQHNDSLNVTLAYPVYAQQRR

In patent US9221795B2, “Phosphatidylinositol 3-kinase inhibitors” (Gilead Sciences, Inc., priority 2013, dated 2015):

Target: PI3Kδ (Homo sapiens (Human), UniProt O00329)
Experiment: Enzymatic activity of PI3K isoforms, TR-FRET assay (PI3Kδ)
Settings: read-out: PI3Kδ IC50, 2× Km ATP, geometric mean if more than one value

## CC[C@H](Nc1nc(N)nc(N)c1C#N)c1nc2c(F)ccc(Cl)c2c(=O)n1-c1cncc(F)c1
  IC50: 4 nM
